The other results are listed elsewhere or left out. Potency and affinity values are given separately. Records with an inconclusive call do not appear. Active and inactive are the calls of the source. How the calls were made is not given here.
Test: Vibrio cholerae quorum sensing activators, luminescence (AID 686977)
Conditions: V. cholerae quorum sensing reporter, 6 h, dose 10, dose unit µg/mL, hits give high values

Compound	luminescence
NC(=O)Nc1ccc([As](=O)(O)O)cc1	inactive: 0

From PubChem BioAssay AID686977 (Southern Research Specialized Biocontainment Screening …, 2013)
